Test results reported in PMC3961306, “Comparison of the Cancer Gene Targeting and Biochemical Selectivities of All Targeted Kinase Inhibitors Approved for Clinical Use” (PLoS ONE, 2014).

The chains behind the UniProt entries cited, without tags or fusion partners. Residues count along the entry.
UniProt P43403, whole entry, stated change not applied: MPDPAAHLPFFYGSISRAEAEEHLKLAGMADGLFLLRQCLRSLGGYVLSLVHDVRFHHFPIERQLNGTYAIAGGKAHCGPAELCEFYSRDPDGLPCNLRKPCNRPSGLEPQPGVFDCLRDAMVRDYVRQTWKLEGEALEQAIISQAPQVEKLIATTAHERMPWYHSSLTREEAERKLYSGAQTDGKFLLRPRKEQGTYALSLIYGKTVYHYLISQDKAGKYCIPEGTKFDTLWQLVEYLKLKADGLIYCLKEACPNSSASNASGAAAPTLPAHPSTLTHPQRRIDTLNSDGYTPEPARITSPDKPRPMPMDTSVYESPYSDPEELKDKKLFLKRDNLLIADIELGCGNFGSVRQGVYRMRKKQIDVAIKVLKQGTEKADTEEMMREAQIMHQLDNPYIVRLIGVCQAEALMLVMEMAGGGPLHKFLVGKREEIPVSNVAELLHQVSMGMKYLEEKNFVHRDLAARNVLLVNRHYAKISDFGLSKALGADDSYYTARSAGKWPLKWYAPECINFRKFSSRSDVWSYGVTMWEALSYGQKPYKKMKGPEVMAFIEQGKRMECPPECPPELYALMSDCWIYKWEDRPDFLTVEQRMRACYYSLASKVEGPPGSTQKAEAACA
UniProt Q16539, whole entry, stated change not applied: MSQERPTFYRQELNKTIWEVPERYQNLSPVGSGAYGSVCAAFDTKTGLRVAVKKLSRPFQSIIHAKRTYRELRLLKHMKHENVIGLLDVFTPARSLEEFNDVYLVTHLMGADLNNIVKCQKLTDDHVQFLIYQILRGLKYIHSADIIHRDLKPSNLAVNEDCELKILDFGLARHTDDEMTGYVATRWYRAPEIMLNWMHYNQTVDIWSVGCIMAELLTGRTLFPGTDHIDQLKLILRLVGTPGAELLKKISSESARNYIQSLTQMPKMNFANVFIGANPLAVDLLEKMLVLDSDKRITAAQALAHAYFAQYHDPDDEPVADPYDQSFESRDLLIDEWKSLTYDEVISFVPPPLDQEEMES
UniProt P49674, whole entry, stated change not applied: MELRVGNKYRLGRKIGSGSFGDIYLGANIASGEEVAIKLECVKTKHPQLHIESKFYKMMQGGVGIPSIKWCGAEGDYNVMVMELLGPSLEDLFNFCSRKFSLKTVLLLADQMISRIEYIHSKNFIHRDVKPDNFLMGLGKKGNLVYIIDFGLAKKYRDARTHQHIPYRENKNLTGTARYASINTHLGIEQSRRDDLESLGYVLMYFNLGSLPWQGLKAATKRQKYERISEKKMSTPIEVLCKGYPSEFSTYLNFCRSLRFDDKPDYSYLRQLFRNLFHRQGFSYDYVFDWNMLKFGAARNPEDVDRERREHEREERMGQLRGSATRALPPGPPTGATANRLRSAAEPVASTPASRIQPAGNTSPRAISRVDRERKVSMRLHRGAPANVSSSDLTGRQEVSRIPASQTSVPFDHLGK
UniProt P22607, 23-806 K650M: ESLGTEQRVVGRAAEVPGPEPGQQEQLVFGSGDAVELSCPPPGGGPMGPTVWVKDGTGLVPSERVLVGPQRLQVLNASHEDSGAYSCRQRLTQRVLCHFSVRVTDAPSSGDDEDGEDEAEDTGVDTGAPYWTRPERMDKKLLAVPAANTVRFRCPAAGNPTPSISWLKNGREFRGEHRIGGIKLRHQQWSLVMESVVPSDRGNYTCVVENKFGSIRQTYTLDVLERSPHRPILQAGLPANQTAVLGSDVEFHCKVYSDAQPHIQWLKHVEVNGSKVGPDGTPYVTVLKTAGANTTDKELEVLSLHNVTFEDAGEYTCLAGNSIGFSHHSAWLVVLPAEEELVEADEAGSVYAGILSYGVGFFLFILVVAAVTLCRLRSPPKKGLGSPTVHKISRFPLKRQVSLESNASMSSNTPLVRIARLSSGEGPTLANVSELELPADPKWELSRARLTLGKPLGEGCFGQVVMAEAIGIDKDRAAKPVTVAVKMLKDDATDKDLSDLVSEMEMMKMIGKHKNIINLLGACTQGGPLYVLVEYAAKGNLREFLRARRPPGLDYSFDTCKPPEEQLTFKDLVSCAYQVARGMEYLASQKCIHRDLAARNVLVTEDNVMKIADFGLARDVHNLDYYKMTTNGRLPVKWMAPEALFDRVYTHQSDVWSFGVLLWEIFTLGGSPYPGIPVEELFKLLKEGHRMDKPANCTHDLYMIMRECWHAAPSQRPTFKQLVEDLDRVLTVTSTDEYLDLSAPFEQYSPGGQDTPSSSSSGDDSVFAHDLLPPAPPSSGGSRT
UniProt P22607, 23-806, stated change not applied: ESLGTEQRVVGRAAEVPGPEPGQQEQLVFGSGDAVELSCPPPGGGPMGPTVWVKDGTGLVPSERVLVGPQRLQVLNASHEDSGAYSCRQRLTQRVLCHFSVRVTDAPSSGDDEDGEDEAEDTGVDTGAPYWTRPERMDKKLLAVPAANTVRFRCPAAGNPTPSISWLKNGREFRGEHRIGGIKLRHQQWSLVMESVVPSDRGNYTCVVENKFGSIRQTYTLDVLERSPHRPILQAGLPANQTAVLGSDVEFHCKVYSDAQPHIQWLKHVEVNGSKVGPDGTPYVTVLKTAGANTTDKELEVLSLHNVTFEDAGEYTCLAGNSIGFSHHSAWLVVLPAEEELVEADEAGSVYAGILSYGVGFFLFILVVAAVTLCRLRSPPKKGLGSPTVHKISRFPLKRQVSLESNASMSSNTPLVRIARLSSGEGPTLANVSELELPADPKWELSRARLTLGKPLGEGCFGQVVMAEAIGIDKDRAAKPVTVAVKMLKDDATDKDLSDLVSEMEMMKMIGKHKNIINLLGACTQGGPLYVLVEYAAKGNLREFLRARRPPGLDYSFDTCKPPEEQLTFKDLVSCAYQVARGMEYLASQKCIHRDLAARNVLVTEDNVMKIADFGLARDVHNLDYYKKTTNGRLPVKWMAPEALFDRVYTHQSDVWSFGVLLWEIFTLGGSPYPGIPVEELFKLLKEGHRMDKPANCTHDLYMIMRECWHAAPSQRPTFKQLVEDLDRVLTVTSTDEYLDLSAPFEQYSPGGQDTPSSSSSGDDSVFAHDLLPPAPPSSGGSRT
UniProt P07949, 29-1114 M918T: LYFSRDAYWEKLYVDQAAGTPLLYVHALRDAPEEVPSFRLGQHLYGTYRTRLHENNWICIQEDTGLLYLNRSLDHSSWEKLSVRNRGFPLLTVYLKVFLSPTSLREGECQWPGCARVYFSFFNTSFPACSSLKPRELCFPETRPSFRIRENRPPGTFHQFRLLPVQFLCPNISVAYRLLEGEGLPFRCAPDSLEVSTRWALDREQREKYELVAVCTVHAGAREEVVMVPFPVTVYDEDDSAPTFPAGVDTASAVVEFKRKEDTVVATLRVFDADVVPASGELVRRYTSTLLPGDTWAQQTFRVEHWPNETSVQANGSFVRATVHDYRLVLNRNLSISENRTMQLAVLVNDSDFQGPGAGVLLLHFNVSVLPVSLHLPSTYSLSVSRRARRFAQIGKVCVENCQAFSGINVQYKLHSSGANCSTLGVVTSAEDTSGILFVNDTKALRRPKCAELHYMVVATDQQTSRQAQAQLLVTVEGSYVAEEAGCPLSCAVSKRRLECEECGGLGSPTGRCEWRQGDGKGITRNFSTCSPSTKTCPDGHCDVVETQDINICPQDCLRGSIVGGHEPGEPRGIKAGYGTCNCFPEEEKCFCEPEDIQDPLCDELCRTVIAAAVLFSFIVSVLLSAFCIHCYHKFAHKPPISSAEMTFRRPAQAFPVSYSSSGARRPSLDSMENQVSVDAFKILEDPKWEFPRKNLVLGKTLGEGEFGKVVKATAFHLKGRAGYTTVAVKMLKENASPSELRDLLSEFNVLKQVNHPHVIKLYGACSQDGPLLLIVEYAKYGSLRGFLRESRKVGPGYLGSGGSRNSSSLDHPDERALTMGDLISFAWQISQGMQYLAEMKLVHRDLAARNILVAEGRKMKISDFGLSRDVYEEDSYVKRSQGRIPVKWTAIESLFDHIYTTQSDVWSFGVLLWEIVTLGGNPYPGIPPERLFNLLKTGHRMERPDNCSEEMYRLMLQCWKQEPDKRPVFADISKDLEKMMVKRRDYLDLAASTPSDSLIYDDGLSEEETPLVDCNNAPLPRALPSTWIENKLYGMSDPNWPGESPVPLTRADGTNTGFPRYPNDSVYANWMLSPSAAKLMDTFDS
UniProt P07949, 29-1114, stated change not applied: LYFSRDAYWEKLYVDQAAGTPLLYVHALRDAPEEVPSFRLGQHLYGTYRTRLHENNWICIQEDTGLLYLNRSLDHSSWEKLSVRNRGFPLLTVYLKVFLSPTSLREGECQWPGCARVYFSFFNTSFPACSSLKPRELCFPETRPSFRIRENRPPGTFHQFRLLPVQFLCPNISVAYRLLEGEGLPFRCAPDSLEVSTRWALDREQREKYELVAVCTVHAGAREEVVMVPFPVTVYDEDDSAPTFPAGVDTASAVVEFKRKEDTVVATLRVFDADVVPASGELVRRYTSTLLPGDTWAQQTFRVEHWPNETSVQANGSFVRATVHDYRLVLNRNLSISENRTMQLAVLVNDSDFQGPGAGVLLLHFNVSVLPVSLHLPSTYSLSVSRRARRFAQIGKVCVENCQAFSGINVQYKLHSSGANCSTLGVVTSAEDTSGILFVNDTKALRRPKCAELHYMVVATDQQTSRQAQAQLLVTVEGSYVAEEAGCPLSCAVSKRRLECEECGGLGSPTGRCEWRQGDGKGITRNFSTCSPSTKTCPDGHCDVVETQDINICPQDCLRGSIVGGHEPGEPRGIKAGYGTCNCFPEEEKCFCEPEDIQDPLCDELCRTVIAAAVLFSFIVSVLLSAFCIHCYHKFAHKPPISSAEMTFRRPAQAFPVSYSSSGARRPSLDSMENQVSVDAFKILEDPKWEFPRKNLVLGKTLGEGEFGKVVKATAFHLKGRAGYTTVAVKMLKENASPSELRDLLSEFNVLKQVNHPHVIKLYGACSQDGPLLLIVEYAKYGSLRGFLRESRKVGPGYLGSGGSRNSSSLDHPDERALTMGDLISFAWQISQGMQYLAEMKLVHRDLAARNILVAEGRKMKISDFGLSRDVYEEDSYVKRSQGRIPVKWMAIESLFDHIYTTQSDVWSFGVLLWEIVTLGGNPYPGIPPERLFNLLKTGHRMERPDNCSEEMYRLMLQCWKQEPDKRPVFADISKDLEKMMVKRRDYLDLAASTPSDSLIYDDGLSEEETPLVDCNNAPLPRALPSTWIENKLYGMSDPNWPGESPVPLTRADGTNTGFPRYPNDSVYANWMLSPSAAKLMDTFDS
UniProt Q9BXA7, whole entry, stated change not applied: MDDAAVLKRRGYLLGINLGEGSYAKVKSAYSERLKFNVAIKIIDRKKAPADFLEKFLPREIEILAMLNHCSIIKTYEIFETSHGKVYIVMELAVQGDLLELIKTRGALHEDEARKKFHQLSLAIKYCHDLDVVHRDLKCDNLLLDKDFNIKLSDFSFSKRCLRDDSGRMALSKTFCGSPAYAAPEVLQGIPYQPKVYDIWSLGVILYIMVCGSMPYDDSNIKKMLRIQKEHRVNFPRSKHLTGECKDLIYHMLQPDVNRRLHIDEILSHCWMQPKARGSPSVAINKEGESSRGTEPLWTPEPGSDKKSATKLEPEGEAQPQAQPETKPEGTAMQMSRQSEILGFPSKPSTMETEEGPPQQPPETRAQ
UniProt P54756, 25-1037, stated change not applied: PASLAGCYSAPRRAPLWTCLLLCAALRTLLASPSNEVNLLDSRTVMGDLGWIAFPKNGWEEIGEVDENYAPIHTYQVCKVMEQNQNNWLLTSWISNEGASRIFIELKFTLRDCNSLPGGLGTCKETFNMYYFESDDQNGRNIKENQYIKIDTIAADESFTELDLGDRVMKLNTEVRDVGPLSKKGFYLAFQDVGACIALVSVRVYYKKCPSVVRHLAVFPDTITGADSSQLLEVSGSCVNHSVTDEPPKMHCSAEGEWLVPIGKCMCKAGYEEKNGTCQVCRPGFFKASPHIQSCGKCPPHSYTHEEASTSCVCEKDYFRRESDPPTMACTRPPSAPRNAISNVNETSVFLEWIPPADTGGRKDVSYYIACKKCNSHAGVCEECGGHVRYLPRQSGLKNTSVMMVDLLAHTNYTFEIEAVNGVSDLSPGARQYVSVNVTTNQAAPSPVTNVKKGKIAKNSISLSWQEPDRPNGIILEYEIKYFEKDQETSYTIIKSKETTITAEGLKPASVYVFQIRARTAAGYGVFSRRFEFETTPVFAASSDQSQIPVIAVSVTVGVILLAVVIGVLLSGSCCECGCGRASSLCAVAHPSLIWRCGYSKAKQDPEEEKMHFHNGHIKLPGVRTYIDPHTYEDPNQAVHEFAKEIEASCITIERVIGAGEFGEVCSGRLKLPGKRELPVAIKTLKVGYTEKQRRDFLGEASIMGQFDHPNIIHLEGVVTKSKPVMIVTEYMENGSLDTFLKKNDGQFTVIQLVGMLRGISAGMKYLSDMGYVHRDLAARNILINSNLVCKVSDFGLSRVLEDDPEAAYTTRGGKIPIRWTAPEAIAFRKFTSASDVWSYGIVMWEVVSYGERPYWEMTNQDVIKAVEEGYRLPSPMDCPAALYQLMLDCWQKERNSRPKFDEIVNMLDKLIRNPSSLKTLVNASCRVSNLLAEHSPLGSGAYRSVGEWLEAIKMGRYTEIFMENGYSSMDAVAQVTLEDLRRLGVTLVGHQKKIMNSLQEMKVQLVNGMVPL

Tests used:
Experiment in all cases: Kinase profiling in a biochemical assay panel (mobility shift assays and ELISA), %-inhibition at 1 μM; selectivity entropy
[1] = biological target: panel of more than 300 wild-type and mutant kinases (313 kinase panel) (Homo sapiens, UniProt Q16816)
[2] = biological target: panel of more than 300 wild-type and mutant kinases (313 kinase panel) (Homo sapiens, UniProt P43403); conditions: 1 µM
[3] = biological target: panel of more than 300 wild-type and mutant kinases (313 kinase panel) (Homo sapiens, UniProt Q9H2X6); conditions: 1 µM
[4] = biological target: panel of more than 300 wild-type and mutant kinases (313 kinase panel) (Homo sapiens, UniProt Q16539); conditions: 1 µM
[5] = biological target: panel of more than 300 wild-type and mutant kinases (313 kinase panel) (Homo sapiens, UniProt P49841); conditions: 1 µM
[6] = biological target: panel of more than 300 wild-type and mutant kinases (313 kinase panel) (Homo sapiens, UniProt Q96SB4); conditions: 1 µM
[7] = biological target: panel of more than 300 wild-type and mutant kinases (313 kinase panel) (Homo sapiens, UniProt P49674); conditions: 1 µM
[8] = biological target: panel of more than 300 wild-type and mutant kinases (313 kinase panel) (Homo sapiens, UniProt P45983); conditions: 1 µM
[9] = biological target: panel of more than 300 wild-type and mutant kinases (313 kinase panel) (Homo sapiens, UniProt P22607, K650M); conditions: 1 µM
[10] = biological target: panel of more than 300 wild-type and mutant kinases (313 kinase panel) (Homo sapiens, UniProt Q9Y463)
[11] = biological target: panel of more than 300 wild-type and mutant kinases (313 kinase panel) (Homo sapiens, UniProt Q12851); conditions: 1 µM
[12] = biological target: panel of more than 300 wild-type and mutant kinases (313 kinase panel) (Homo sapiens, UniProt Q02763); conditions: 1 µM
[13] = biological target: panel of more than 300 wild-type and mutant kinases (313 kinase panel) (Homo sapiens, UniProt Q13464); conditions: 1 µM
[14] = biological target: panel of more than 300 wild-type and mutant kinases (313 kinase panel) (Homo sapiens, UniProt P22607); conditions: 1 µM
[15] = biological target: panel of more than 300 wild-type and mutant kinases (313 kinase panel) (Homo sapiens, UniProt P29376); conditions: 1 µM
[16] = biological target: panel of more than 300 wild-type and mutant kinases (313 kinase panel) (Homo sapiens, UniProt P07949, M918T); conditions: 1 µM
[17] = biological target: panel of more than 300 wild-type and mutant kinases (313 kinase panel) (Homo sapiens, UniProt P36507); conditions: 1 µM
[18] = biological target: panel of more than 300 wild-type and mutant kinases (313 kinase panel) (Homo sapiens, UniProt Q16566); conditions: 1 µM
[19] = biological target: panel of more than 300 wild-type and mutant kinases (313 kinase panel) (Homo sapiens, UniProt P07949); conditions: 1 µM
[20] = biological target: panel of more than 300 wild-type and mutant kinases (313 kinase panel) (Homo sapiens, UniProt Q9BXA7); conditions: 1 µM
[21] = biological target: panel of more than 300 wild-type and mutant kinases (313 kinase panel) (Homo sapiens, UniProt Q9P1W9); conditions: 1 µM
[22] = biological target: panel of more than 300 wild-type and mutant kinases (313 kinase panel) (Homo sapiens, UniProt P54756); conditions: 1 µM
[23] = biological target: panel of more than 300 wild-type and mutant kinases (313 kinase panel) (Homo sapiens, UniProt Q9NRA0)

| Compound | %-inhibition of ZAP70 [2] [%] | %-inhibition of HIPK2 [3] [%] | %-inhibition of p38α [4] [%] | %-inhibition of GSK3β [5] [%] | %-inhibition of SRPK1 [6] [%] | %-inhibition, CK1ε [7] [%] | %-inhibition of JNK1 [8] [%] | %-inhibition of FGFR3(K650M) [9] [%] | %-inhibition of DYRK1B [10] [%] | %-inhibition of MAP4K2 [11] [%] | %-inhibition of TIE2 [12] [%] | %-inhibition of ROCK1 [13] [%] | %-inhibition of FGFR3 [14] [%] | %-inhibition of LTK [15] [%] | %-inhibition of RET(M918T) [16] [%] | %-inhibition of MAP2K2 [17] [%] | %-inhibition, CaMK4 [18] [%] | %-inhibition of RET [19] [%] | %-inhibition of TSSK1 [20] [%] | %-inhibition of PIM2 [21] [%] | also measured |
| --- | --- | --- | --- | --- | --- | --- | --- | --- | --- | --- | --- | --- | --- | --- | --- | --- | --- | --- | --- | --- | --- |
| CNC(=O)c1ccccc1Sc1ccc2c(/C=C/c3ccccn3)n[nH]c2c1 [axitinib] |  |  |  |  |  |  |  |  |  |  |  |  |  |  |  |  |  |  |  |  | %-inhibition of PHKG1 ([1]; kinase PHKG1, 1 μM): 0.391% |
| COc1cc2ncnc(Nc3ccc(F)c(Cl)c3)c2cc1OCCCN1CCOCC1 [gefitinib] | 5.67 | 12 | 32 | -6 | -3 | -6 | 21 | 37 | 14 | 6.66 | 0.787 | 1.19 | 13 | 20 | 48 | 7.39 | -3.42 | 48 | 10 | 11 | %-inhibition of EPHA5 [22]: 59%; %-inhibition of SPHK2 ([23]; kinase SPHK2, 1 μM): -4.57% |
| C[C@@H]1CCN(C(=O)CC#N)C[C@@H]1N(C)c1ncnc2[nH]ccc12 [tofacitinib] | 0.475 | -8 | -3 | 1.1 | 2.13 | 3.69 | -0.777 | 12 | -4.63 | 1.58 | -0.857 | 23 | 4.61 | 6.42 | 6 | 6 | -3.55 | 14 | -1.16 | -8 | %-inhibition of PHKG1 ([1]; 1 µM): 1.3%; %-inhibition of EPHA5 [22]: 0.175%; %-inhibition of SPHK2 ([23]; 1 µM): 2.77% |
